Data on 1 substance can be found in paper PMC2749821.

As usually defined, the Kd is the constant that tells how readily two partners part at equilibrium. Low readings indicate tighter binding, high ones weaker binding.

The assay concerns the target m20.

Substance anti BMPR-IA (Fab) gave a Kd of 0.0134 µM.
